Here are results for one compound from patent US5874412A, “Bis-anthracyclines with high activity against doxorubicin resistant tumors” (priority 1997, dated 1999).

The structures appear in SMILES notation. Where a name gives a salt, the structure may show the parent alone.

The subject of one data set is MCF-7/VP-16 cells. Briefly: MTT cytotoxicity assay, MRP-resistant MCF-7/VP-16 cells. On the technique in general: Tetrazolium dyes change colour on reduction, which living cells bring about.
The test system of the next data set is KB-V-1 cells. The note with it: ratio of ID50 values.

On to `COc1cccc2c1C(=O)c1c(O)c3c(c(O)c1C2=O)C[C@@](O)(C(C)=O)C[C@@H]3O[C@H]1C[C@H](O)[C@H](NCc2ccc(CN[C@@H]3[C@H](C)O[C@@H](O[C@H]4C[C@](O)(C(C)=O)Cc5c(O)c6c(c(O)c54)C(=O)c4c(OC)cccc4C6=O)C[C@@H]3O)cc2)[C@H](C)O1` [WP652, α,α'-Bis-4'-N-(4'-amino-3'-deamino-4'-deoxy-3'-hydroxydaunorubicin)-p-xylene hydrochloride], for which the “cytotoxicity in MCF-7/VP-16 cells compared with DOX, in words” value with MCF-7/VP-16 cells (MRP-resistant MCF-7/VP-16) is reported as “dramatic increase in cytotoxicity”. In the data set on MCF-7/VP-16 cells (ratio of ID50 values, 4320 min), the RI (resistance index) MCF-7/VP16 / MCF-7 was determined as 0.9. Further, the IC50 with MCF-7/VP-16 cells (read-out: ID50 MCF-7/VP16, MTT, 72 h, MRP-resistant MCF-7/VP-16) worked out at 3.49 µM. Moreover, the RI (resistance index) KB-V-1 / KB-3-1 in the data set on KB-V-1 cells was found to be 1.5.
